Data: ChEMBL document CHEMBL3872267, “Design and synthesis of phosphoryl-substituted diphenylpyrimidines (Pho-DPPYs) as potent Bruton's tyrosine kinase (BTK) inhibitors: Targeted treatment of B lymphoblastic leukemia cell lines” (Bioorg Med Chem, 2017)

By UniProt entry, the sequences of proteins in these tests, tags left out. Where a name states a change or a piece, a line headed by the entry shows the natural chain unless it says otherwise.
UniProt Q06187: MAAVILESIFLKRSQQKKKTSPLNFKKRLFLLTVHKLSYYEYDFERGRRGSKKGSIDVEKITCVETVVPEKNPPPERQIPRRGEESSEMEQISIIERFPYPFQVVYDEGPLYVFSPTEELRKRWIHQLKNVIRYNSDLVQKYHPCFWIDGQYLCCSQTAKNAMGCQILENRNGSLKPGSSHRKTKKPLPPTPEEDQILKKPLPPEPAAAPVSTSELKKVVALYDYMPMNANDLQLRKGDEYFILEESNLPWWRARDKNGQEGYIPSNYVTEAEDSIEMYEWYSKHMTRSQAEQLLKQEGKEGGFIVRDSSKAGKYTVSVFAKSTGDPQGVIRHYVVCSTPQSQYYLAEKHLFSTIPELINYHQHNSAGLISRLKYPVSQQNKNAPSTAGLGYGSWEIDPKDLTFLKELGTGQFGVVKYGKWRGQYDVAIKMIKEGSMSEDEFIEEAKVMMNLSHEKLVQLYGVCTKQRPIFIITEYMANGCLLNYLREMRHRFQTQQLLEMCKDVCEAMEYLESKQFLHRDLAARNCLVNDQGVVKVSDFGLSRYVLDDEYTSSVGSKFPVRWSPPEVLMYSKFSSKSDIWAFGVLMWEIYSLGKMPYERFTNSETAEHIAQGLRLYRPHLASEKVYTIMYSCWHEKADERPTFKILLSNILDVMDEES

Biological target: Tyrosine-protein kinase BTK (Homo sapiens, UniProt Q06187)
Assay: Inhibition of human recombinant full-length N-terminal His-tagged BTK expressed in baculovirus infected Sf9 insect cells measured after 60 mins by ADP-Glo kinase assay

IC50: 0.72 nM
Compound: C=CC(=O)Nc1cccc(Nc2nc(Nc3ccc(OCCOC)cc3)ncc2F)c1 [SPEBRUTINIB]
